Measured values as given in doi:10.1101/2025.07.23.666285.

Target: stapled Myc_B1 peptide
Assay: BLI

truncated WDR5 (amino acids 22–334) (from UniProt P61964 22-334) (domain or fragment)
Kd: 39 nM
